The chains behind the UniProt entries cited, without tags or fusion partners. Where a name states a change or a piece, a line headed by the entry shows the natural chain unless it says otherwise.
UniProt P04818: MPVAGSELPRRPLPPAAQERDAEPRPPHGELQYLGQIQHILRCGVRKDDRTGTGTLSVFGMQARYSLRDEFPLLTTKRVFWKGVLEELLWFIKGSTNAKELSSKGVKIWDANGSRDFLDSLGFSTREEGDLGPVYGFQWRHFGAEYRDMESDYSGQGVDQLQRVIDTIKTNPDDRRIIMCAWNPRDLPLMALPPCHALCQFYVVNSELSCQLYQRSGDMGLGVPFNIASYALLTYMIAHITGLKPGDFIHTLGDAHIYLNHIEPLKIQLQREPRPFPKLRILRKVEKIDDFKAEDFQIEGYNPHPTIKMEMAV

According to ChEMBL document CHEMBL1125372, “Crystal-structure-based design and synthesis of benz[cd]indole-containing inhibitors of thymidylate synthase” (J Med Chem, 1992):

What was measured:
[1] = biological target: Thymidylate synthase (Escherichia coli) (UniProt C3SWJ7)
[2] = biological target: Thymidylate synthase (Escherichia coli) (UniProt C3SWJ7); remark: listed apart in the source
[3] = biological target: Thymidylate synthase (Homo sapiens) (UniProt P04818)
[4] = biological target: Thymidylate synthase (Homo sapiens) (UniProt P04818); remark: listed apart in the source
[5] = biological target: Thymidylate synthase (Homo sapiens) (UniProt P04818); remark: listed apart in the source
[6] = biological target: Thymidylate synthase (Homo sapiens) (UniProt P04818); remark: listed apart in the source
[7] = biological target: Thymidylate synthase (Escherichia coli) (UniProt C3SWJ7); remark: listed apart in the source
[8] = biological target: Thymidylate synthase (Escherichia coli) (UniProt C3SWJ7); remark: listed apart in the source

Row | Structure (SMILES) | Kis [1] | Kii [2] | Kii [3] | Kis [4] | Kii [5] | Kis [6] | Kii [7] | Kis [8]
1 | CN(Cc1ccc(S(=O)(=O)c2ccccc2)cc1)c1ccc2c3c(cccc13)C(NN)=N2 | > 10 µM | > 10 µM | 2.5 µM | 1.9 µM | – | – | – | –
2 | CN(Cc1ccc(S(=O)(=O)N2CCOCC2)cc1)c1ccc2c3c(ccc(Cl)c13)C(=O)N2 | 3.1 µM | 3.5 µM | 0.075 µM | 0.12 µM | – | – | – | –
3 | CNC1=Nc2ccc(N(C)Cc3ccc(S(=O)(=O)c4ccccc4)cc3)c3cccc1c23 | 2.1 µM | 4.7 µM | 0.054 µM | 0.053 µM | – | – | – | –
4 | COc1ccc(S(=O)(=O)c2ccc(CN(C)c3ccc4c5c(ccc(C)c35)C(NO)=N4)cc2)cc1 | 1.1 µM | 0.87 µM | 0.1 µM | 0.432 µM | – | – | – | –
5 | COc1ccc(S(=O)(=O)c2ccc(CN(C)c3ccc4c5c(cccc35)C(N)=N4)cc2)cc1 | 1.4 µM | 2.5 µM | 0.02 µM | 0.025 µM | – | – | – | –
6 | CSc1ccc2c3c(ccc(N(C)Cc4ccc(S(=O)(=O)N5CCOCC5)cc4)c13)N=C2N | 0.23 µM | 0.54 µM | 0.11 µM | 0.11 µM | – | – | – | –
7 | Cc1ccc2c3c(ccc(NCc4ccc(S(=O)(=O)c5ccccc5)cc4)c13)NC2=O | > 1 µM | > 1 µM | 1.1 µM | 1 µM | – | – | – | –
8 | CN(Cc1ccc(S(=O)(=O)c2ccccc2)cc1)c1ccc2c3c(cccc13)C(NO)=N2 | 6.1 µM | – | 0.73 µM | 0.36 µM | – | – | – | –
9 | Cc1ccc2c3c(ccc(N(C)Cc4ccc(S(=O)(=O)N5CCOCC5)cc4)c13)NC2=O | 1.4 µM | 1 µM | 0.039 µM | 0.076 µM | – | – | – | –
10 | O=C1Nc2ccc(NCc3ccc(S(=O)(=O)c4ccccc4)cc3)c3cccc1c23 | > 3 µM | > 3 µM | 2.8 µM | 2.6 µM | – | – | – | –
11 | Cc1ccc2c3c(ccc(N(C)Cc4ccc(S(=O)(=O)c5ccccc5)cc4)c13)N=C2N | 0.21 µM | 0.55 µM | 0.044 µM | 0.035 µM | – | – | – | –
12 | CCN(Cc1ccc(S(=O)(=O)c2ccccc2)cc1)c1ccc2c3c(cccc13)C(N)=N2 | 7.1 µM | 22 µM | 0.081 µM | 0.4 µM | – | – | – | –
13 | Cc1ccc2c3c(ccc(N(C)Cc4ccc(S(=O)(=O)c5ccc([N+](=O)[O-])cc5)cc4)c13)N=C2N | 1.1 µM | 2 µM | 0.064 µM | 0.09 µM | – | – | – | –
14 | COc1ccc(S(=O)(=O)c2ccc(CN(C)c3ccc4c5c(ccc(C)c35)C(N)=N4)cc2)cc1 | 1.3 µM | 1.4 µM | 0.032 µM | 0.048 µM | – | – | – | –
15 | CCN(Cc1ccc(S(=O)(=O)c2ccccc2)cc1)c1ccc2c3c(cccc13)C(=O)N2 | > 1 µM | > 1 µM | 1 µM | 1.3 µM | – | – | – | –
16 | CNC1=Nc2ccc(N(C)Cc3ccc(S(=O)(=O)c4ccc(OC)cc4)cc3)c3c(C)ccc1c23 | 0.51 µM | 1 µM | 0.029 µM | 0.039 µM | – | – | – | –
17 | CN(Cc1ccc(S(=O)(=O)c2ccc(O)cc2)cc1)c1ccc2c3c(cccc13)C(=O)N2 | 2.9 µM | 6 µM | 0.06 µM | 0.2 µM | – | – | – | –
18 | CN(Cc1ccc(S(=O)(=O)c2ccc([N+](=O)[O-])cc2)cc1)c1ccc2c3c(cccc13)C(=O)N2 | > 10 µM | > 10 µM | 0.18 µM | 0.11 µM | – | – | – | –

Row | Structure (SMILES) | Kis [1] | Kii [2] | Kii [3] | Kis [4] | Kii [5] | Kis [6] | Kii [7] | Kis [8]
19 | CN(Cc1ccc(S(=O)(=O)N2CCOCC2)cc1)c1ccc2c3c(cccc13)C(=O)N2 | 6.6 µM | 11 µM | 0.25 µM | 0.3 µM | – | – | – | –
20 | CSC1Nc2ccc(N(C)Cc3ccc(S(=O)(=O)c4ccc(O)cc4)cc3)c3cccc1c23 (stereo not drawn) | 22 µM | 16 µM | 2.9 µM | 3.8 µM | – | – | – | –
21 | O=C1Nc2ccc(N(CCCO)Cc3ccc(S(=O)(=O)N4CCNCC4)cc3)c3cccc1c23 | 39 µM | 92 µM | 8.8 µM | 6.9 µM | – | – | – | –
22 | CSCN(Cc1ccc(S(=O)(=O)c2ccccc2)cc1)c1ccc2c3c(cccc13)C(=O)N2 | > 1 µM | > 1 µM | 2.8 µM | 5 µM | – | – | – | –
23 | CCCN(Cc1ccc(S(=O)(=O)N2CCNCC2)cc1)c1ccc2c3c(cccc13)C(=O)N2 | – | – | – | – | 11 µM | 13 µM | > 30 µM | > 30 µM
24 | Cc1ccc2c3c(ccc(N(C)Cc4ccc(S(=O)(=O)c5ccccc5)cc4)c13)NC2=O | 3 µM | 3.4 µM | 0.07 µM | 0.073 µM | – | – | – | –
25 | CC(C)N(Cc1ccc(S(=O)(=O)N2CCNCC2)cc1)c1ccc2c3c(cccc13)C(=O)N2 | 18 µM | 27 µM | 5.7 µM | 11 µM | – | – | – | –
26 | CN(Cc1ccc(S(=O)(=O)c2ccc(O)cc2)cc1)c1ccc2c3c(cccc13)C(N)=N2 | 0.27 µM | 0.64 µM | 0.015 µM | 0.012 µM | – | – | – | –
27 | Cc1ccc2c3c(ccc(N(C)Cc4ccc(S(=O)(=O)c5ccc([N+](=O)[O-])cc5)cc4)c13)NC2=O | 2.7 µM | 2.6 µM | 0.12 µM | 0.13 µM | – | – | – | –
28 | CNC1=Nc2ccc(N(C)Cc3ccc(S(=O)(=O)N4CCOCC4)cc3)c3cccc1c23 | 1.3 µM | 6.3 µM | 0.053 µM | 0.017 µM | – | – | – | –
29 | O=C1Nc2ccc(N(CCO)Cc3ccc(S(=O)(=O)N4CCNCC4)cc3)c3cccc1c23 | 6.5 µM | 12 µM | 0.88 µM | 0.59 µM | – | – | – | –
30 | COc1ccc(S(=O)(=O)c2ccc(CN(C)c3ccc4c5c(ccc(C)c35)C(=O)N4)cc2)cc1 | 5 µM | 5.6 µM | 0.094 µM | 0.064 µM | – | – | – | –
31 | CN(Cc1ccc(S(=O)(=O)N2CCOCC2)cc1)c1ccc2c3c(ccc(Cl)c13)C(N)=N2 | 1.6 µM | 2.1 µM | 0.02 µM | 0.029 µM | – | – | – | –
32 | COc1ccc(S(=O)(=O)c2ccc(CN(C)c3ccc4c5c(cccc35)C(=O)N4)cc2)cc1 | > 2 µM | > 2 µM | 0.18 µM | 0.27 µM | – | – | – | –
33 | CC(=O)c1cccc2c(N(C)Cc3ccc(S(=O)(=O)c4ccc(N)cc4)cc3)ccc(N)c12 | 4.5 µM | 7.4 µM | 0.079 µM | 0.14 µM | – | – | – | –
34 | Cc1ccc2c3c(ccc(N(C)Cc4ccc(S(=O)(=O)c5ccc(N)cc5)cc4)c13)NC2=O | 1.3 µM | 1.8 µM | 0.039 µM | 0.046 µM | – | – | – | –
35 | Cc1ccc2c3c(ccc(N(C)Cc4ccc(S(=O)(=O)N5CCOCC5)cc4)c13)N=C2N | 0.13 µM | 0.18 µM | 0.015 µM | 0.02 µM | – | – | – | –
36 | Cc1ccc2c3c(ccc(N(C)Cc4ccc(S(=O)(=O)c5ccc(N)cc5)cc4)c13)N=C2N | 0.3 µM | 0.53 µM | 0.03 µM | 0.043 µM | – | – | – | –
